Assay results taken from patent publication US20020197702A1 (IDUN PHARMACEUTICALS, published 2002).

Experiments:
Assay in all cases: cell-based or functional assay
[1] = target: T1, 697-neo HM (spontaneous activity) caspase (human, UniProt P42574 14-175, limits assumed)
T1 sequence 1: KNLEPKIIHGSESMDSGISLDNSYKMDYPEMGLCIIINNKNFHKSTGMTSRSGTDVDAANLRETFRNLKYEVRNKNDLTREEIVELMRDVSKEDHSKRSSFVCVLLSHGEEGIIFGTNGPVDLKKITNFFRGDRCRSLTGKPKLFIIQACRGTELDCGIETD
T1 sequence 2: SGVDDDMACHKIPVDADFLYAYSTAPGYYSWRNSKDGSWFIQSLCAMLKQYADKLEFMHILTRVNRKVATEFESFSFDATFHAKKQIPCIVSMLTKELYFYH

[2] = target: T2, 697 Bcl-2 HM (caspase-1 treated) caspase (human, UniProt P42574 14-175; P42574 176-277, limits assumed)
T2 chain 1: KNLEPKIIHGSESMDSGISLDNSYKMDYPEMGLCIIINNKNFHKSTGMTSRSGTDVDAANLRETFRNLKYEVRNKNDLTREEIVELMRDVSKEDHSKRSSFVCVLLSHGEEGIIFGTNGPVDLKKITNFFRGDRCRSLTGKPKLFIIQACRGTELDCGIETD
T2 chain 2: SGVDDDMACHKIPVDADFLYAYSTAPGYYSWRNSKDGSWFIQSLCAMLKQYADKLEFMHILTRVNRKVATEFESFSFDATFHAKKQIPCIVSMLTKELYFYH

[3] = target: T3, 697-neo HM (caspase-1 treated) caspase (human, UniProt P42574 14-175; P42574 176-277, limits assumed)
T3 chain 1: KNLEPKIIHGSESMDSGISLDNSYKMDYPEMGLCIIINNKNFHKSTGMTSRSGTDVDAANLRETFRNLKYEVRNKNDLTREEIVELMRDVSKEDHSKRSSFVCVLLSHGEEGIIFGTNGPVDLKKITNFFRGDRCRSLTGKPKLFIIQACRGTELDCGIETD
T3 chain 2: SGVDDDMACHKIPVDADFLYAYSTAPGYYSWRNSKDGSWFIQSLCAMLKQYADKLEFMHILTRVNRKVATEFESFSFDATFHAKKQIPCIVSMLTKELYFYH

[4] = target: T4, recombinant murine caspase-1 (mouse, UniProt P29452 119-402, limits assumed)
T4 sequence (looked up): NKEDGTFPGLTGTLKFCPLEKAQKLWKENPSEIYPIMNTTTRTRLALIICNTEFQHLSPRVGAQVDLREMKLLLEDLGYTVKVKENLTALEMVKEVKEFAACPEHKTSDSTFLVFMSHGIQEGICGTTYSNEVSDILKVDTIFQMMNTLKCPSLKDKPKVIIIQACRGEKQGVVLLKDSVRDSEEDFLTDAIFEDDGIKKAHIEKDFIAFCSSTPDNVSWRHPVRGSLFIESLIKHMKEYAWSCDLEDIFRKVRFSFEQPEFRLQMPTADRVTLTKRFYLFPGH

Binder | IC50, inhibition of DEVD-amc cleavage [1] | IC50, inhibition of DEVD-amc cleavage [2] | IC50, inhibition of DEVD-amc cleavage [3] | IC50, inhibition of caspase-1 [4]
DEVD (C-terminal aldehyde) [DEVD-ald] | 2.3 nM | 1.3 nM | 2.8 nM | –
YVAD (C-terminal aldehyde; N-terminal acetyl (printed as acYVAD-aldehyde in paragraph 147)) [YVAD-ald] | – | – | – | 1 nM
